Reference: US9162979B2, “1,5-Diary1-2-alkylpyrrole-3-substituted nitro esters, selective COX-2 inhibitors and nitric oxide donors” (ROTTAPHARM BIOTECH S.R.L., priority 2010, dated 2015)

By UniProt entry, the sequences of proteins in these tests, tags left out. Residues count along the entry.
UniProt Q05769, 18-604: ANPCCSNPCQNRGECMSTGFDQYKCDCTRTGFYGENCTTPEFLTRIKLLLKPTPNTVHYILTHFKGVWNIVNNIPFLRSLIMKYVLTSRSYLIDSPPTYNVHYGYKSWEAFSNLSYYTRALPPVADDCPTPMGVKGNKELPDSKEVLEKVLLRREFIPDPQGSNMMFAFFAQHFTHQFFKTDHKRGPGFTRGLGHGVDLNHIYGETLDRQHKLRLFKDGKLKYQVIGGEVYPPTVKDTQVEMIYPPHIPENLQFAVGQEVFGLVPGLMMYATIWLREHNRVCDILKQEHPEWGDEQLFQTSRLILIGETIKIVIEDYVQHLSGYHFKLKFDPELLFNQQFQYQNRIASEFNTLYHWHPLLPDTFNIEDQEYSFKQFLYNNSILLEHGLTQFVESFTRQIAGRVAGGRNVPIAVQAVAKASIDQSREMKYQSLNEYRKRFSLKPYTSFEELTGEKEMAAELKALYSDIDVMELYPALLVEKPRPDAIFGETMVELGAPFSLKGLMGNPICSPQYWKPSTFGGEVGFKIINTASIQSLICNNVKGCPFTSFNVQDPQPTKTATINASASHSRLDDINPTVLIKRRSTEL

Target: COX-2 (Mus musculus (Mouse), UniProt Q05769)
Test: Evaluation of COX-2 activity: PGE2 production in LPS-stimulated J774 cells
Format: cell-based, murine
Conditions: J774 cells stimulated 24 hours with LPS 10 μg/mL; PGE2 by radio-immunological assay; read-out: Cyclooxygenase inhibition COX-2 IC50
Description: The murine monocyte/macrophage cell line J774 is grown in Dulbecco's modified Eagle's medium (DMEM), enriched with glutamine (2 mM), HEPES (25 mM), penicillin (100 u/mL), streptomycin (100 μg/mL), 10% of fetal bovine serum (FBS) and 1.2% of sodium pyruvate. The cells are distributed in 24-well plates at a density of 2.5×10^5 cells/mL or in culture dishes with a diameter of 10 cm (1×10^7 cells/10 mL/dish) and kept for 2 hours at 37° C. in a CO2 (5%)/O2 (95%) atmosphere. Just before the experiments, the culture medium is replaced with fresh medium without FBS to avoid interference during the radio-immunological phase and the cells are stimulated as described below.
The cells are stimulated, for 24 hours, with lipopolysaccharide of E. coli (10 μg/mL), to induce production of COX-2, in the absence and/or in the presence of the test compounds. The supernatants are collected for evaluating, by means of radio-immunological assays, the amount of PGE2 produced.
In each group of experiments, wells were used in triplicate for the different treatment conditions. The results are the mean value of 3 experiments and are expressed as percentage inhibition of production of PGE2 of the compounds tested relative to the control. The data were evaluated using the sigmoidal dose-response equation (variable slope) (GraphPad software). […]

SMILES | IC50 [nM]
Cc1c(CCOCCO)cc(-c2ccc(S(C)(=O)=O)cc2)n1-c1ccc(F)cc1 [Example 37-II] | 89
Cc1c(CCOCCO)cc(-c2ccc(S(C)(=O)=O)cc2)n1-c1ccccc1 [Example 36-II, 2-[2-[1-Phenyl-2-methyl-5-(4-methylsulphonylphenyl)-1H-pyrrol-3-yl]ethoxy]ethanol] | 27
